Reference: patent publication US9623028B2 (dated 2017)
Like-named read-outs stand apart in the source and are kept apart here.

Legend:
breast cancer cell lines = assay: cells; conditions: read-out: Growth Inhibition IC50
[1] = system: non small cell lung cancer (NSCLC) cell lines; assay: cells; conditions: Homo sapiens, NCI-H520, 72 h, read-out: Average IC50 (μM)

IC50 (breast cancer cell lines; HCC1500, 96 h): 13900 nM
IC50 (breast cancer cell lines; Homo sapiens, MDA-MB-134-VI, 96 h): 1390 nM
IC50 [1]: 1.45 µM
Structure (SMILES): CNC(=O)c1ccc(Nc2nc(OC3CCCC3)c3c(-c4ccc(O)cc4)c[nH]c3n2)c(OC)c1 [Compound 3, 4-((4-(cyclopentyloxy)-5-(4-hydroxyphenyl)-7H-pyrrolo[2,3-d]pyrimidin-2-yl)amino)-3-methoxy-N-methylbenzamide]
